This note sets out measurements from PubChem BioAssay AID1447 (Sanford-Burnham Center for Chemical Genomics, 2008).

The list shows a part of the results, in another mix than the full data. Calls of active or inactive are those of the source.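 The calls were made as follows: active = reconfirmed compounds whose average cytotoxicity reaches 50% or more; inactive = the rest.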

This assay can be described thus: cytotoxicity in PPC-1 cells, confirmation, cytotoxicity control for TRAIL apoptosis potentiator project, cell-based, ATP content luminescence (AID 1447).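 Also: 0% = DMSO-treated cells and 100% = wells holding medium but no cells.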 To be noted: PPC-1 viability, ATPlite luminescence, overnight; at 5 µM; active compounds read high. In general terms: ATP-based viability assays read luminescence as a measure of living cells.
As to `C[N+]1=C2C=CC=CC=C2SC12C([N+](=O)[O-])=CC([N+](=O)[O-])=C[C-]2[N+](=O)[O-]` (stereo unspecified), the cytotoxicity is inactive: 4.6%.
